Measurements reported in ChEMBL document CHEMBL1131037, “Structure-based design, synthesis, and biological evaluation of irreversible human rhinovirus 3C protease inhibitors. 2. Peptide structure-activity studies” (J Med Chem, 1998).

Target: T1, Human rhinovirus A protease (Human rhinovirus sp.) (UniProt Q4U254)
T1 sequence (whole entry): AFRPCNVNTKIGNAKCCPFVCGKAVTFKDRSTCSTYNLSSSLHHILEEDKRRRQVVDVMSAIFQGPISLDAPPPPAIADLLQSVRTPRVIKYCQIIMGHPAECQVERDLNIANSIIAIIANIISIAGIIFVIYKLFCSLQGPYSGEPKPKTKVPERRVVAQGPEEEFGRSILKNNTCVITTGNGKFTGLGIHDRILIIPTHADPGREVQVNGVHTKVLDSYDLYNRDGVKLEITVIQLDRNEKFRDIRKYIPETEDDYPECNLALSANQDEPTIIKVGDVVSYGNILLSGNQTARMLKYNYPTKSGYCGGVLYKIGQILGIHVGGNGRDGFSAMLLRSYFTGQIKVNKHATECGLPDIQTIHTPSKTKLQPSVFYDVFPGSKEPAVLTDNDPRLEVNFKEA
Assay: Binding affinity on human Rhinovirus 3C protease (rhinovirus serotype 2)

CCOC(=O)/C=C/[C@H](CCC(N)=O)NC(=O)[C@H](Cc1ccccc1)NC(=O)[C@H](CC(C)C)NC(=O)OCc1ccccc1
K obs / 1: 3400 M⁻¹ s⁻¹
